Data taken from the kinase profiling compilation of Christmann-Franck et al. (2016).

Sequences of proteins named here, by UniProt entry; tags and fusion partners are left off. A change or cut given only in a name is not applied to a line headed by its entry.
UniProt O43318: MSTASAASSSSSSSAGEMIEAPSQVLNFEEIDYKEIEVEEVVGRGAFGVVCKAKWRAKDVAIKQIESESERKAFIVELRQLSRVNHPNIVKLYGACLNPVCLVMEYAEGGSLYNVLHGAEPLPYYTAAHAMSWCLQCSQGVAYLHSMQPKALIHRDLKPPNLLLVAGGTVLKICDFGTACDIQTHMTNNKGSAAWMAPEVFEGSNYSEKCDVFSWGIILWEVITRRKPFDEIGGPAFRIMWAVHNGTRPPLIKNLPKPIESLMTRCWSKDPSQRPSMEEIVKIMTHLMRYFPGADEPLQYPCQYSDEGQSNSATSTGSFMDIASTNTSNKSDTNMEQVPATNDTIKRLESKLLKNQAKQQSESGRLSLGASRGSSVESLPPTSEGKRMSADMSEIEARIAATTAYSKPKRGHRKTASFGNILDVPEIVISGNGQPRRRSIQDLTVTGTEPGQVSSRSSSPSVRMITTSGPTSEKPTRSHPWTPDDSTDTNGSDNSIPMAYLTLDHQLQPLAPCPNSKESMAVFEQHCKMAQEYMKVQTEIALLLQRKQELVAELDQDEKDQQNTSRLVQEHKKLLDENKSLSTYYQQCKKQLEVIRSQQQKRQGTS
UniProt Q9H2K8: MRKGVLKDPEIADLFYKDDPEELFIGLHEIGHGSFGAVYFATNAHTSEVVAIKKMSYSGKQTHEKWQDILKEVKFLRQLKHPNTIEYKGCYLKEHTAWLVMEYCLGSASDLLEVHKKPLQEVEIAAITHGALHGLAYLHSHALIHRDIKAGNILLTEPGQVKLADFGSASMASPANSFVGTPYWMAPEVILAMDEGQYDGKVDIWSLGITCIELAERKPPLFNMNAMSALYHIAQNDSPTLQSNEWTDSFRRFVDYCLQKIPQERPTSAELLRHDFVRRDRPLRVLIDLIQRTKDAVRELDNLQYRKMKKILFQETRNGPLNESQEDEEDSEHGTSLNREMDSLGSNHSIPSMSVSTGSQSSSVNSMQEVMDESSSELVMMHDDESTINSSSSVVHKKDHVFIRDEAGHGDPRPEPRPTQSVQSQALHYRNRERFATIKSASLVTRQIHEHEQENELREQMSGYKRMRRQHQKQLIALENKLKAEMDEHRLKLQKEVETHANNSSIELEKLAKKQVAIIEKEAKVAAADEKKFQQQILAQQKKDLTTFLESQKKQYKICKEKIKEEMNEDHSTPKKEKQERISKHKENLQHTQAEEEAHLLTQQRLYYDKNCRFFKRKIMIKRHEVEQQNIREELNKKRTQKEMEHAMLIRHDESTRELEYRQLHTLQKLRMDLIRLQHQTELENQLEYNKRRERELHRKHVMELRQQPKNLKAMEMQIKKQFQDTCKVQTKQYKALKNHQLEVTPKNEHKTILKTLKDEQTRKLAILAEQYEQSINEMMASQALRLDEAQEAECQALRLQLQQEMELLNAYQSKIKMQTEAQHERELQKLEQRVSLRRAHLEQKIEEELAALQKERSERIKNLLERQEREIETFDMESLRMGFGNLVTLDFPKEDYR
UniProt Q15750: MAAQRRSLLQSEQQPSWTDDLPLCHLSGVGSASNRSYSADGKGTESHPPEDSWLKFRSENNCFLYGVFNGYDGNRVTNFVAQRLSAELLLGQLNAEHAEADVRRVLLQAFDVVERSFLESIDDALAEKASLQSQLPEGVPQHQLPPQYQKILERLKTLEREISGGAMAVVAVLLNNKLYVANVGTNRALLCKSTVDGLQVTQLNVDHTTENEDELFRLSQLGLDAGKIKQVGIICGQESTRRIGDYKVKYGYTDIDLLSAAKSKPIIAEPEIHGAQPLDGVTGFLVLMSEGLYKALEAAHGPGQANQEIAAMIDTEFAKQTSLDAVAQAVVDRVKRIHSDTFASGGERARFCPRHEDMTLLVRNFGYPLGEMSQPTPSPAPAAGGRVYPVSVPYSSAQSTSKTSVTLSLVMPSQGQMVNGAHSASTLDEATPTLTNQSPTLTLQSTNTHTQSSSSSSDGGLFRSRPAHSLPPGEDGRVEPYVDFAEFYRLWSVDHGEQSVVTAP

Legend:
[1] = target: MAP3K7 (human) (UniProt O43318); test: KINOMEscan competition binding; details: compound 10.0 µM
[2] = target: TAOK3 (human) (UniProt Q9H2K8); test: KINOMEscan competition binding; details: compound 10.0 µM
[3] = target: MAP3K7 TAB1 (human) (UniProt Q15750+O43318); test: radiometric filter-binding kinase assay

CCN1CCN(Cc2ccc(NC(=O)c3ccc(C)c(Oc4ccnc5[nH]ccc45)c3)cc2C(F)(F)F)CC1
kinase still bound, per cent of control [1]: 0.15% | kinase still bound, per cent of control [2]: 0.15% | residual activity ([3]; compound 0.1 µM): 11% | residual activity ([3]; compound 1.0 µM): 7.47% | residual activity ([3]; compound 10.0 µM): 4.09%
